According to ChEMBL document CHEMBL2429835:

Assay: Selectivity index, ratio of IC50 for african green monkey Vero cells to MIC90 for Mycobacterium tuberculosis H37Rv ATCC 27294 by microplate Alamar blue assay
Assay type: functional
Method in brief: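 Computed as Vero IC50 divided by the MABA MIC against H37Rv.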

Row | Compound | Selectivity Index
1 | CO[C@H]1/C=C/O[C@@]2(C)Oc3c(C)c(O)c4c(O)c(c(/C=N/N5CCN(C)CC5)c(O)c4c3C2=O)NC(=O)/C(C)=C\C=C\[C@H](C)[C@H](O)[C@@H](C)[C@@H](O)[C@@H](C)[C@H](OC(C)=O)[C@@H]1C [RIFAMPIN] | >1250
2 | NNC(=O)c1ccncc1 [ISONIAZID] | >3333
